# Earlier results as cited in patent publication US20190175515A1, “CHOLESTERYL ESTER VESICLES LOADING PEPTIDES, PROTEINS AND NUCLEIC ACIDS INTO CHYLOMICRONS AND BODY CELLS” (priority 2016, published 2019).
# System: melanoma
# Conditions: patients with melanoma; cited from earlier work
substance,measurement,value
high-dose IL-2,overall tumor response (OR) rate,16%
